One assay has as its target P. falciparum Grp94 (Plasmodium falciparum, UniProt Q8I0V4). The assay is described as follows: biochemical. Type of assay: binding.
Another assay concerns the target P. falciparum Hsp90 (Plasmodium falciparum, UniProt Q8IC05). The assay is described as follows: biochemical. Type of assay: binding.

Sequences of proteins named here, by UniProt entry; tags and fusion partners are left off.
UniProt Q8I0V4, entry or part of it: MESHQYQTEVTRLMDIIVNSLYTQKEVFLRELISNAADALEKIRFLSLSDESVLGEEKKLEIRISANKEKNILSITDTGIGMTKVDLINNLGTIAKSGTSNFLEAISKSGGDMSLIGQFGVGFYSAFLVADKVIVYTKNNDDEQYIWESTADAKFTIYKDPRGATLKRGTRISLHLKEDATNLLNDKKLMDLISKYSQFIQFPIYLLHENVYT
UniProt Q8IC05, entry or part of it: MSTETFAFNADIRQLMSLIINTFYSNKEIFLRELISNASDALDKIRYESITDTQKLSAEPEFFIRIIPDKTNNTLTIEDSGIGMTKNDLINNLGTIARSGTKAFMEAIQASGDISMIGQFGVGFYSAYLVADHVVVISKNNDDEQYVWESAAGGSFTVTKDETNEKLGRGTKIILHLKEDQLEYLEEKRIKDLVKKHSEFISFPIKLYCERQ

These results are taken from paper PMC5518105, “Identification and characterization of the antiplasmodial activity of Hsp90 inhibitors” (Malaria Journal, 2017).

As a reminder, the Kd is the constant that tells how readily two partners part at equilibrium.

For `CC(C)NCCCn1c(Sc2cc3c(cc2I)OCO3)nc2c(N)ncnc21` [PUH71], on P. falciparum Grp94, the Kd was found to be 6.43 µM, the ka turned out to be 5830 M⁻¹ s⁻¹ and the kd amounted to 0.006 s⁻¹. On P. falciparum Hsp90, this compound displayed a Kd of 0.015 µM.
